Measured values from PubChem BioAssay AID602440 (Sanford-Burnham Center for Chemical Genomics, 2012).
Only a part is listed here, and it is no random draw. Calls of active or inactive are those of the source. No stated cut-off is given here; in the data, active means inhibition mostly above about 40% (no sharp cut-off); inactive means mostly below about 27%.

The chains behind the UniProt entries cited, without tags or fusion partners. Where a name states a change or a piece, a line headed by the entry shows the natural chain unless it says otherwise.
UniProt Q96LD8: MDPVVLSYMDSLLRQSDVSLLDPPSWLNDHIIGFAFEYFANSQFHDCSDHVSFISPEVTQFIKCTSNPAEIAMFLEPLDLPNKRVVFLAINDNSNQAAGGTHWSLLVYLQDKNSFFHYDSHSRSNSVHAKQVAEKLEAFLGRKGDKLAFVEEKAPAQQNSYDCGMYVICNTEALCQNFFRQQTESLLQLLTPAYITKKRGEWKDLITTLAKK

Each compound was assayed against Sentrin-specific protease 8 (Homo sapiens) (UniProt Q96LD8) (assay: blockers of SENP8 deneddylase activity – biochemical, fluorescence, Nedd8 protein substrate, uHTS, primary screen (AID 602440)). Settings: recombinant SENP8, Nedd8 substrate fluorescence; at 20 µM; active compounds read high.

| SMILES | inhibition |
| --- | --- |
| Cc1ccc(NP(=O)(Oc2ccccc2)Oc2ccccc2)nc1 | inactive: -197% |
| O=[N+]([O-])c1cccc2n[nH]nc12 | inactive: 22.8% |
| CC(=O)N1C2C3N(C(C)=O)C1C1N(C(C)=O)C(C(N1C(C)=O)N3C(C)=O)N2C(C)=O | inactive: 20.5% |
| O=[N+]([O-])c1ncn(CCn2ncnc2[N+](=O)[O-])n1 | inactive: 30% |
| CC(C)(C)C(=O)NC(Sc1ccncn1)C(Cl)(Cl)Cl (stereo not given) | inactive: 12% |
| O=C(O)CNc1ccc([As](=O)(O)O)cc1 | inactive: 13.7% |
| O=[N+]([O-])c1cccc(NC2=NCC(CBr)S2)c1 (stereo not given) | inactive: -39% |
| COC(=O)C1(C)COP(=O)(Nc2ccccc2)OC1 (stereo not given) | inactive: 18% |
| O=P1(N(CCCl)CCCl)OCCCS1 (stereo not given) | inactive: 14.6% |
| O=C(Nc1cc([As](=O)(O)O)ccc1O)c1ccccc1 | inactive: 28.8% |
| Nc1cccc2ccc([As](=O)(O)O)cc12 | inactive: -304% |
| CCN(N=Nc1nonc1N)c1nonc1N | inactive: 6.2% |
| CN(C)P(=O)(N(C)C)n1c(Nc2ccccc2)nnc1-c1ccccc1 | inactive: 4.2% |
| O=P(Nc1nc2ccc(Cl)cc2s1)(c1ccccc1)c1ccccc1 | inactive: 3.7% |
| CCCC1OP(N)(=O)OCC1CC (stereo not given) | inactive: 13.4% |
| O=C(O)c1ccccc1[As](=O)(O)O | inactive: 20.1% |
| CC(=O)Nc1ccc([As](=O)(O)O)cc1 | inactive: 2.8% |
| Cc1ccc(NP(=O)(Oc2ccccc2F)Oc2ccccc2F)nc1 | inactive: -106% |
| CN(C(=O)Cc1ccc(Cl)c(Cl)c1)[C@H]1CCCC[C@@H]1N1CCCC1 | inactive: 4.5% |
| CCOP(=O)(Nc1ccccc1)OCC | inactive: 13.8% |
| Cc1cc(SC(NC(=O)c2ccc(F)cc2)C(Cl)(Cl)Cl)ncn1 (stereo not given) | inactive: 21% |
| O=C(NC(Sc1ccncn1)C(Cl)(Cl)Cl)c1ccccc1 (stereo not given) | inactive: 7.1% |
| Oc1ccccc1CNc1ccccn1 | inactive: -0.7% |
| CC(C)CC(=O)NC(Sc1ccc(Cl)cc1)C(Cl)(Cl)Cl (stereo not given) | inactive: 18.5% |
| Nc1cc(N)c2nonc2c1[N+](=O)[O-] | inactive: 26.1% |

| SMILES | inhibition |
| --- | --- |
| O=[N+]([O-])C1C(O)C(O)C([N+](=O)[O-])C(O)C1O (stereo not given) | inactive: 11.8% |
| Cc1ccc(N/C(=N/P(=O)(N2CCOCC2)N2CCOCC2)N2CCOCC2)cc1 | inactive: 2.1% |
| CN(C(=O)Cc1ccc(Cl)c(Cl)c1)[C@H]1CCCC[C@H]1N1CCCC1 | inactive: 7.7% |
| NC(=O)c1cc([N+](=O)[O-])cc([N+](=O)[O-])c1N | inactive: 2.1% |
| Clc1ccc(Cl)c(NC2=NCC(CBr)S2)c1 (stereo not given) | inactive: 5.5% |
| CN1CCCC(OC(=O)C(c2ccccc2)c2ccccc2)C1 (stereo not given) | inactive: 10.6% |
| Cc1ccc(OP(=O)(Nc2nccs2)Oc2ccc(C)cc2)cc1 | inactive: 19% |
| COc1ccccc1OP(=O)(Nc1ccc(C)cn1)Oc1ccccc1OC | inactive: -125% |
| C[C@@H]1C=CCP(=O)(Oc2ccccc2)O1 (stereo not given in full) | inactive: 16.2% |
| C[C@H]1OP(=O)(Oc2ccccc2)C[C@@H]2O[C@@H]21 (stereo not given in full) | inactive: 10.7% |
| Cc1ccccc1CN(C)C(=O)COC(=O)C(O)(c1ccccc1)c1ccccc1 | inactive: -1% |
| COC(=O)C1(C)COP(=O)(NCc2ccccc2)OC1 (stereo not given) | inactive: 16% |
| N#C/C(=C\c1ccc(N(CCBr)CCBr)cc1)C(N)=O | inactive: -104% |
| CC(=O)c1ccc(N2CC2c2ccncc2)cc1 (stereo not given) | inactive: 1.1% |
| CC(=O)Nc1ccc(Oc2c([N+](=O)[O-])cc([N+](=O)[O-])cc2[N+](=O)[O-])cc1 | inactive: 20% |
| CC(=O)Nc1ccc([As](=O)(O)O)c(O)c1 | inactive: 26.5% |
| CCOc1ccc(C2=NCC(CBr)S2)cc1 (stereo not given) | inactive: -1.9% |
| O=P1(Nc2nc3ccc(Cl)cc3s2)COc2ccccc2O1 (stereo not given) | inactive: 20.5% |
| CC(C)(C)C(=O)NC(Sc1ccccc1)C(Cl)(Cl)Cl (stereo not given) | inactive: -3.2% |
| CCc1cc(O)c([N+](=O)[O-])c(C)c1[N+](=O)[O-] | inactive: 18% |
| CCC(=O)N1C2C3N(C(=O)CC)C1C1N(C(=O)CC)C(C(N1C(=O)CC)N3C(=O)CC)N2C(=O)CC | inactive: 25.1% |
| O=C(OC1CN2CCC1CC2)c1ccccc1 (stereo not given) | inactive: 12.2% |
| Cc1ccc(OP(=O)(Nc2ccccn2)Oc2ccc(C)cc2)cc1 | inactive: 5.1% |
| CC(=O)NC(SC(=S)N(CC(C)C)CC(C)C)C(Cl)(Cl)Cl (stereo not given) | inactive: 19.7% |
| COC(=O)c1cc2c(s1)N=C(c1ccccc1)N(C)P2(=O)N1CCOCC1 (stereo not given) | inactive: 7.9% |

| SMILES | inhibition |
| --- | --- |
| CN(C)C(=O)Oc1noc2ccccc12 | inactive: 8.9% |
| O=c1c2cc([N+](=O)[O-])ccc2[nH]c2c([N+](=O)[O-])cc([N+](=O)[O-])cc12 | active: 70.2% |
| Cc1ccccc1OP(=O)(Nc1ccccn1)Oc1ccccc1C | inactive: -52% |
| CC(NC(=O)COC(=O)C(O)(c1ccccc1)c1ccccc1)c1ccccc1 (stereo not given) | inactive: 9.1% |
| Cc1ccc(NP(=O)(Oc2cccc(C)c2)Oc2cccc(C)c2)nc1 | inactive: -122% |
| c1ccc(-c2nn[nH]n2)c(-c2nn[nH]n2)c1 | inactive: 8% |
| CCNC(=S)/N=C(\N)N[N+](=O)[O-] | inactive: 15.1% |
| O=C(NC1CCS(=O)(=O)C1)NP(=S)(Oc1ccccc1)Oc1ccccc1 (stereo not given) | inactive: 9.8% |
| O=P1(N(CCCl)CCCl)OCCC2CCCCN21 (stereo not given) | inactive: 11.9% |
| O=[As](O)(c1ccccc1)c1ccc(O)cc1 | inactive: 18.4% |
| O=[N+]([O-])c1ccc(O)c(/C=N/Nc2ccc([N+](=O)[O-])cc2[N+](=O)[O-])c1 | active: 42.3% |
| O=[N+]([O-])c1ncn(CCn2cnc([N+](=O)[O-])n2)n1 | inactive: 12.8% |
| CC(=O)NC(SC(=S)N(C)C)C(Cl)(Cl)Cl (stereo not given) | inactive: 16.4% |
| O=C(OC1CN2CCC1CC2)c1cccc(Cl)c1 (stereo not given) | inactive: 12% |
| Nc1ccc([As](=O)(O)c2ccc([N+](=O)[O-])cc2)cc1 | inactive: 13% |
| C(Cc1nn[nH]n1)Cc1nn[nH]n1 | inactive: 7% |
| O=P(Nc1ccccn1)(c1ccc(Br)cc1)c1ccc(Br)cc1 | inactive: -64.9% |
| CN(C)C1(CNC(=O)c2ccc(Cl)c(S(N)(=O)=O)c2)CCCCC1 | inactive: 6.9% |
| Nc1ccc(CCCCOc2ccccc2)cc1 | inactive: 31.1% |
| COc1ccc(N)c([N+](=O)[O-])c1[N+](=O)[O-] | inactive: 33.4% |
| C[C@H]1OP(=O)(Oc2ccccc2)[C@H](O)[C@H](O)[C@H]1N=[N+]=[N-] (stereo not given in full) | inactive: 13.1% |
| O=P(Nc1nc2ccccc2s1)(c1ccccc1)c1ccccc1 | inactive: 20% |
| CC(C)C(=O)NC(Sc1ccccc1)C(Cl)(Cl)Cl (stereo not given) | inactive: 25.5% |
| O=P(Nc1nccs1)(c1ccccc1)c1ccccc1 | inactive: 3.2% |
| c1nnnn1CCn1cnnn1 | inactive: 8.1% |
